# Some compounds may have been tested in ways that are not shown here.
# Experiment: in vitro iontophoretic delivery through excised porcine skin in flow-through cells
substance,measurement,setting,value
remifentanil hydrochloride,Flux,"Exp #3, 10 mg/ml in water, 500 uA, 3 mg, 24.00 hrs",0.13 μg/min/cm^2
same,Flux,"Exp #3, 10 mg/ml in water, 500 uA, 3 mg, −1.00 hrs",0.00 μg/min/cm^2
same,Flux,"Exp #4, 2.5 mg/ml in water, 500 uA, 0.75 mg, 0.00 hrs",0.00 μg/min/cm^2
same,Flux,"Exp #4, 2.5 mg/ml in water, 500 uA, 0.75 mg, 1.00 hrs",0.00 μg/min/cm^2
same,Flux,"Exp #4, 2.5 mg/ml in water, 500 uA, 0.75 mg, 2.00 hrs",0.00 μg/min/cm^2
same,Flux,"Exp #4, 2.5 mg/ml in water, 500 uA, 0.75 mg, 3.00 hrs",0.01 μg/min/cm^2
same,Flux,"Exp #4, 2.5 mg/ml in water, 500 uA, 0.75 mg, 4.00 hrs",0.03 μg/min/cm^2
same,Flux,"Exp #4, 2.5 mg/ml in water, 500 uA, 0.75 mg, 5.00 hrs",0.05 μg/min/cm^2
same,Flux,"Exp #4, 2.5 mg/ml in water, 500 uA, 0.75 mg, 6.00 hrs",0.09 μg/min/cm^2
same,Flux,"Exp #4, 2.5 mg/ml in water, 500 uA, 0.75 mg, 7.00 hrs",0.11 μg/min/cm^2
same,Flux,"Exp #4, 2.5 mg/ml in water, 500 uA, 0.75 mg, 8.00 hrs",0.13 μg/min/cm^2
same,Flux,"Exp #4, 2.5 mg/ml in water, 500 uA, 0.75 mg, 9.00 hrs",0.14 μg/min/cm^2
same,Flux,"Exp #4, 2.5 mg/ml in water, 500 uA, 0.75 mg, 10.00 hrs",0.15 μg/min/cm^2
same,Flux,"Exp #4, 2.5 mg/ml in water, 500 uA, 0.75 mg, 11.00 hrs",0.155 μg/min/cm^2
same,Flux,"Exp #4, 2.5 mg/ml in water, 500 uA, 0.75 mg, 12.00 hrs",0.16 μg/min/cm^2
same,Flux,"Exp #4, 2.5 mg/ml in water, 500 uA, 0.75 mg, 13.00 hrs",0.167 μg/min/cm^2
same,Flux,"Exp #4, 2.5 mg/ml in water, 500 uA, 0.75 mg, 14.00 hrs",0.17 μg/min/cm^2
same,Flux,"Exp #4, 2.5 mg/ml in water, 500 uA, 0.75 mg, 15.00 hrs",0.174 μg/min/cm^2
same,Flux,"Exp #4, 2.5 mg/ml in water, 500 uA, 0.75 mg, 16.00 hrs",0.17 μg/min/cm^2
same,Flux,"Exp #4, 2.5 mg/ml in water, 500 uA, 0.75 mg, 17.00 hrs",0.178 μg/min/cm^2
same,Flux,"Exp #4, 2.5 mg/ml in water, 500 uA, 0.75 mg, 18.00 hrs",0.18 μg/min/cm^2
same,Flux,"Exp #4, 2.5 mg/ml in water, 500 uA, 0.75 mg, 19.00 hrs",0.178 μg/min/cm^2
same,Flux,"Exp #4, 2.5 mg/ml in water, 500 uA, 0.75 mg, 20.00 hrs",0.18 μg/min/cm^2
same,Flux,"Exp #4, 2.5 mg/ml in water, 500 uA, 0.75 mg, 21.00 hrs",0.173 μg/min/cm^2
same,Flux,"Exp #4, 2.5 mg/ml in water, 500 uA, 0.75 mg, 22.00 hrs",0.17 μg/min/cm^2
same,Flux,"Exp #4, 2.5 mg/ml in water, 500 uA, 0.75 mg, 23.00 hrs",0.167 μg/min/cm^2
same,Flux,"Exp #4, 2.5 mg/ml in water, 500 uA, 0.75 mg, 24.00 hrs",0.16 μg/min/cm^2
same,Flux,"Exp #9, 10 mg/ml in water, 1000 uA, 1 mg, 1.00 hrs",0.00 μg/min/cm^2
same,Flux,"Exp #9, 10 mg/ml in water, 1000 uA, 1 mg, 2.00 hrs",0.04 μg/min/cm^2
same,Flux,"Exp #9, 10 mg/ml in water, 1000 uA, 1 mg, 3.00 hrs",0.06 μg/min/cm^2
same,Flux,"Exp #9, 10 mg/ml in water, 1000 uA, 1 mg, 4.00 hrs",0.07 μg/min/cm^2
same,Flux,"Exp #9, 10 mg/ml in water, 1000 uA, 1 mg, 5.00 hrs",0.08 μg/min/cm^2
same,Flux,"Exp #9, 10 mg/ml in water, 1000 uA, 1 mg, 6.00 hrs",0.09 μg/min/cm^2
same,Flux,"Exp #9, 10 mg/ml in water, 1000 uA, 1 mg, 7.00 hrs",0.11 μg/min/cm^2
same,Flux,"Exp #9, 10 mg/ml in water, 1000 uA, 1 mg, 8.00 hrs",0.13 μg/min/cm^2
same,Flux,"Exp #9, 10 mg/ml in water, 1000 uA, 1 mg, 9.00 hrs",0.14 μg/min/cm^2
same,Flux,"Exp #9, 10 mg/ml in water, 1000 uA, 1 mg, 10.00 hrs",0.16 μg/min/cm^2
same,Flux,"Exp #9, 10 mg/ml in water, 1000 uA, 1 mg, 11.00 hrs",0.19 μg/min/cm^2
same,Flux,"Exp #9, 10 mg/ml in water, 1000 uA, 1 mg, 12.00 hrs",0.22 μg/min/cm^2
same,Flux,"Exp #9, 10 mg/ml in water, 1000 uA, 1 mg, 13.00 hrs",0.24 μg/min/cm^2
same,Flux,"Exp #9, 10 mg/ml in water, 1000 uA, 1 mg, 14.00 hrs",0.26 μg/min/cm^2
same,Flux,"Exp #9, 10 mg/ml in water, 1000 uA, 1 mg, 15.00 hrs",0.28 μg/min/cm^2
same,Flux,"Exp #9, 10 mg/ml in water, 1000 uA, 1 mg, 16.00 hrs",0.30 μg/min/cm^2
same,Flux,"Exp #9, 10 mg/ml in water, 1000 uA, 1 mg, 17.00 hrs",0.33 μg/min/cm^2
same,Flux,"Exp #9, 10 mg/ml in water, 1000 uA, 1 mg, 18.00 hrs",0.35 μg/min/cm^2
same,Flux,"Exp #9, 10 mg/ml in water, 1000 uA, 1 mg, 19.00 hrs",0.38 μg/min/cm^2
same,Flux,"Exp #9, 10 mg/ml in water, 1000 uA, 1 mg, 20.00 hrs",0.41 μg/min/cm^2
same,Flux,"Exp #9, 10 mg/ml in water, 1000 uA, 1 mg, 21.00 hrs",0.44 μg/min/cm^2
same,Flux,"Exp #9, 10 mg/ml in water, 1000 uA, 1 mg, 22.00 hrs",0.46 μg/min/cm^2
same,Flux,"Exp #9, 10 mg/ml in water, 1000 uA, 1 mg, 23.00 hrs",0.48 μg/min/cm^2
same,Flux,"Exp #9, 10 mg/ml in water, 1000 uA, 1 mg, 24.00 hrs",0.50 μg/min/cm^2
same,Flux,"Exp #10, 10 mg/ml in water, 100 uA, 1 mg, 0.00 hrs",0.00 μg/min/cm^2
same,Flux,"Exp #10, 10 mg/ml in water, 100 uA, 1 mg, 1.00 hrs",0.00 μg/min/cm^2
same,Flux,"Exp #10, 10 mg/ml in water, 100 uA, 1 mg, 2.00 hrs",0.01 μg/min/cm^2
same,Flux,"Exp #10, 10 mg/ml in water, 100 uA, 1 mg, 3.00 hrs",0.03 μg/min/cm^2
same,Flux,"Exp #10, 10 mg/ml in water, 100 uA, 1 mg, 4.00 hrs",0.03 μg/min/cm^2
same,Flux,"Exp #10, 10 mg/ml in water, 100 uA, 1 mg, 5.00 hrs",0.02 μg/min/cm^2
same,Flux,"Exp #10, 10 mg/ml in water, 100 uA, 1 mg, 6.00 hrs",0.02 μg/min/cm^2
same,Flux,"Exp #10, 10 mg/ml in water, 100 uA, 1 mg, 7.00 hrs",0.03 μg/min/cm^2
same,Flux,"Exp #10, 10 mg/ml in water, 100 uA, 1 mg, 8.00 hrs",0.03 μg/min/cm^2
same,Flux,"Exp #10, 10 mg/ml in water, 100 uA, 1 mg, 9.00 hrs",0.03 μg/min/cm^2
same,Flux,"Exp #10, 10 mg/ml in water, 100 uA, 1 mg, 10.00 hrs",0.02 μg/min/cm^2
same,Flux,"Exp #10, 10 mg/ml in water, 100 uA, 1 mg, 11.00 hrs",0.03 μg/min/cm^2
same,Flux,"Exp #10, 10 mg/ml in water, 100 uA, 1 mg, 12.00 hrs",0.03 μg/min/cm^2
same,Flux,"Exp #10, 10 mg/ml in water, 100 uA, 1 mg, 13.00 hrs",0.03 μg/min/cm^2
same,Flux,"Exp #10, 10 mg/ml in water, 100 uA, 1 mg, 14.00 hrs",0.03 μg/min/cm^2
same,Flux,"Exp #10, 10 mg/ml in water, 100 uA, 1 mg, 15.00 hrs",0.03 μg/min/cm^2
same,Flux,"Exp #10, 10 mg/ml in water, 100 uA, 1 mg, 16.00 hrs",0.03 μg/min/cm^2
same,Flux,"Exp #10, 10 mg/ml in water, 100 uA, 1 mg, 17.00 hrs",0.03 μg/min/cm^2
same,Flux,"Exp #10, 10 mg/ml in water, 100 uA, 1 mg, 18.00 hrs",0.03 μg/min/cm^2
same,Flux,"Exp #10, 10 mg/ml in water, 100 uA, 1 mg, 19.00 hrs",0.03 μg/min/cm^2
same,Flux,"Exp #10, 10 mg/ml in water, 100 uA, 1 mg, 20.00 hrs",0.03 μg/min/cm^2
same,Flux,"Exp #10, 10 mg/ml in water, 100 uA, 1 mg, 21.00 hrs",0.03 μg/min/cm^2
same,Flux,"Exp #10, 10 mg/ml in water, 100 uA, 1 mg, 22.00 hrs",0.03 μg/min/cm^2
same,Flux,"Exp #10, 10 mg/ml in water, 100 uA, 1 mg, 23.00 hrs",0.03 μg/min/cm^2
same,Flux,"Exp #10, 10 mg/ml in water, 100 uA, 1 mg, 24.00 hrs",0.03 μg/min/cm^2
